Consider two molecules from patent US20170267738A1 (published 2017).

For the experiment, the target named is T1, NYESO1 (peptide NYESO1-001) peptide on HLA-A*02:01 (human).
T1 peptide: SLLMWITQV
Put plainly: multimer staining.

B1: R20P1H7 (TCR, V domains shown)
Valpha: EDQVTQSPEALRLQEGESSSLNCSYTVSGLRGLFWYRQDPGKGPEFLFTLYSAGEEKEKERLKATLTKKESFLHITAPKPEDSATYLCAVQGENSGYSTLTFGKGTMLLVSP
Vbeta: EAQVTQNPRYLITVTGKKLTVTCSQNMNHEYMSWYRQDPGLGLRQIYYSMNVEVTDKGDVPEGYKVSRKEKRNFPLILESPSPNQTSLYFCASSLGPGLAAYNEQFFGPGTRLTVL
For B1, the binding result is given as “no recognition”.

B2: R10P2G12 (TCR, V domains shown)
Valpha: AQKVTQAQTEISVVEKEDVTLDCVYETRDTTYYLFWYKQPPSGELVFLIRRNSFDEQNEISGRYSWNFQKSTSSFNFTITASQVVDSAVYFCALSEGNSGNTPLVFGKGTRLSVIA
Vbeta: DVKVTQSSRYLVKRTGEKVFLECVQDMDHENMFWYRQDPGLGLRLIYFSYDVKMKEKGDIPEGYSVSREKKERFSLILESASTNQTSMYLCASSLSSGSHQETQYFGPGTRLLVL
Take B2: the binding result was “no recognition”.
